Test results published in patent publication US8946423B2, “Highly soluble salt of pyrroloquinoline quinone and method for producing the same” (Mitsubishi Gas Chemical Company, Inc., priority 2010, dated 2015).

Test: Dissolution test: salts dissolved up to saturation, solubility determined by absorbance at 450 nm
Description: The disodium salt of PQQ obtained by the method as described in Example 1 was used.
These salts were dissolved up to saturation at room temperature of 23 to 28° C., and these solutions each were diluted by 20 times or 400 times with a phosphate buffer having a pH of 7.5. For the diluted solutions each, an analysis of the ultraviolet-visible absorption spectra was carried out using a HITACHI U-2000 spectrometer.

Relative Ratio (solubility) [or] | solubility of pyrroloquinoline, mmol/L | Molecule | Relative Ratio (solubility) (Solvent Ethanol, relative to Disodium Salt of PQQ in water = 1) [or] | Relative Ratio (solubility) (Solvent Water, relative to Disodium Salt of PQQ in water = 1) [or]
≥ 21.5 | ≥ 171 or mmol/L | 2.4 Choline Salt of PQQ | – | –
– | – | C[N+](C)(C)CCO.C[N+](C)(C)CCO.C[N+](C)(C)CCO.O=C(O)c1cc(C(=O)O)c2c(n1)C(=O)C(=O)c1cc(C(=O)O)[nH]c1-2 [Tricholine Salt of PQQ] | ≥ 21.5 | ≥ 21.5

Like-named read-outs stand apart in the source and are kept apart here.
